Amino acid sequences for entries named in this document (tags omitted). A change or cut given only in a name is not applied to a line headed by its entry. Residues count along the entry.
UniProt Q2M2I8, 46-315 limits assumed: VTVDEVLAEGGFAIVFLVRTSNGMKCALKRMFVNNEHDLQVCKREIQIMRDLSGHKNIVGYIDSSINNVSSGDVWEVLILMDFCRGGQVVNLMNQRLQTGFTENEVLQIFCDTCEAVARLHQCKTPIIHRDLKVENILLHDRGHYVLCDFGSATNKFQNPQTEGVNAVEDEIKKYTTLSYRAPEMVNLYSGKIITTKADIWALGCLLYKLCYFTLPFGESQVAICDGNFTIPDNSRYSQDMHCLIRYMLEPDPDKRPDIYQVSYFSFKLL
UniProt P00519, 242-493 limits assumed: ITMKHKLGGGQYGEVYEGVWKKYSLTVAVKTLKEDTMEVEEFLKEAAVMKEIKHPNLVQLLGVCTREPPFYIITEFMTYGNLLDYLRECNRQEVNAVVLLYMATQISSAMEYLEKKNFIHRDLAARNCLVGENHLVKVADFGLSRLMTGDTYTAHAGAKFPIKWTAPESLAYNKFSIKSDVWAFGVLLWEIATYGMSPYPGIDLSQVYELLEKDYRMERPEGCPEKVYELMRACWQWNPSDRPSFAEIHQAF
UniProt Q13873, 203-504 limits assumed: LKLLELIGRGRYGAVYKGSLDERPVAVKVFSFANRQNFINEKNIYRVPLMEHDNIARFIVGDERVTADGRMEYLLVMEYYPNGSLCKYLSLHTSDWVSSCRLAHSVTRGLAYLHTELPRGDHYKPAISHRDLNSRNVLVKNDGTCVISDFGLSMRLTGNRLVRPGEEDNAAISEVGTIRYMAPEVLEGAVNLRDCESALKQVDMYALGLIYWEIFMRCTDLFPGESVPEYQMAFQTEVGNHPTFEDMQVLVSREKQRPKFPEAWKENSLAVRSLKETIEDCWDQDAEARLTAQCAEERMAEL
UniProt Q8IU85: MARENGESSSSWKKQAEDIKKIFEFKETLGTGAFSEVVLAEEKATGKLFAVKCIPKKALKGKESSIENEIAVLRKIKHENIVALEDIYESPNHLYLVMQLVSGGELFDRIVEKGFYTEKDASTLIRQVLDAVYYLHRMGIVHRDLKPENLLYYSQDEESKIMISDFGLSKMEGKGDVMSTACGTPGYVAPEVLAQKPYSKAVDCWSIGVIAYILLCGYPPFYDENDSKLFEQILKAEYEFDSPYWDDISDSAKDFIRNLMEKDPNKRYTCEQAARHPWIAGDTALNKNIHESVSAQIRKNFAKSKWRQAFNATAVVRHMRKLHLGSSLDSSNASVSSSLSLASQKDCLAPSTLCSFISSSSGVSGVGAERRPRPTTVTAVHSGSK
UniProt Q96NX5, 23-277 limits assumed: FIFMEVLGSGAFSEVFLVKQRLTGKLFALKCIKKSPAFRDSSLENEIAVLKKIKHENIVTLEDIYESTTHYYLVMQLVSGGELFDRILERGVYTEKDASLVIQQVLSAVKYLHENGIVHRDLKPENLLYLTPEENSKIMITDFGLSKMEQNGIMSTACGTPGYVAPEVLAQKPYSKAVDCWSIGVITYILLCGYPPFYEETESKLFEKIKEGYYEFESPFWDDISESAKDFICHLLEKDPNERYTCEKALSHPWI
UniProt Q13554, 14-272 limits assumed: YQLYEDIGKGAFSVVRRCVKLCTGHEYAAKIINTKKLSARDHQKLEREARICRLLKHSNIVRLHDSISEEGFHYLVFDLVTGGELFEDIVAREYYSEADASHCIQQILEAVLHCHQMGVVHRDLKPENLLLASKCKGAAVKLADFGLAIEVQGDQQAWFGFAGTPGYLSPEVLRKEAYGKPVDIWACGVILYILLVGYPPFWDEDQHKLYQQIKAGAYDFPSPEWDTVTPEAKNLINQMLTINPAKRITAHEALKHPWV
UniProt O14936, 12-276 limits assumed: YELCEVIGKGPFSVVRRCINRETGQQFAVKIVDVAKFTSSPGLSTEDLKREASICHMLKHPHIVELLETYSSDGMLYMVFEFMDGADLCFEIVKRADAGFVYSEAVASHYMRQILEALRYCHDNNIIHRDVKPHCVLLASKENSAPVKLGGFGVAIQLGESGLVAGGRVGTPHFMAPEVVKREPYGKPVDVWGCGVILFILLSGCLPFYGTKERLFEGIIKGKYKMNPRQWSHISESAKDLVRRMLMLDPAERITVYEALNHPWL
UniProt P68400, 39-324 limits assumed: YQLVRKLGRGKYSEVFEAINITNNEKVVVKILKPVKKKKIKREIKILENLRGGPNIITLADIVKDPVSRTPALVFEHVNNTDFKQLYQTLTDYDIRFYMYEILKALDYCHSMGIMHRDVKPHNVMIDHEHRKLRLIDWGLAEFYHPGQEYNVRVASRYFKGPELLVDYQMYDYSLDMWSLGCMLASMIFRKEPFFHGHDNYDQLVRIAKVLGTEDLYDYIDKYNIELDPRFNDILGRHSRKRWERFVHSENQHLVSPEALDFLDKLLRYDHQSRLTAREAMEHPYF
UniProt O43293, 13-275 limits assumed: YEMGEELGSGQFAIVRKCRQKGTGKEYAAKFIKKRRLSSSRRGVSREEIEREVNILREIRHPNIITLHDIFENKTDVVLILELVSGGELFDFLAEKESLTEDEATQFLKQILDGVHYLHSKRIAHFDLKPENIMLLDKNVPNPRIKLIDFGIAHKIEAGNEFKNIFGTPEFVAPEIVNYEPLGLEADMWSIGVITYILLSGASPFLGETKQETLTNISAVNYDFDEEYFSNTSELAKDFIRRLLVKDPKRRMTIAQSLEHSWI
UniProt P54762, 619-882 limits assumed: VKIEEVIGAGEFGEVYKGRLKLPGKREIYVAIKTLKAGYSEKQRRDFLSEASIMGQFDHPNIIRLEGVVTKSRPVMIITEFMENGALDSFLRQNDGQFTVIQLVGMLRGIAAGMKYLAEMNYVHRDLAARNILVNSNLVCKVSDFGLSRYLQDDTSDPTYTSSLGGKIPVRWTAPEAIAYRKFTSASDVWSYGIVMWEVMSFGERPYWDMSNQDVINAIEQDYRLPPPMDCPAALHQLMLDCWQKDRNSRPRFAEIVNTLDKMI
UniProt P11362, 456-767 limits assumed: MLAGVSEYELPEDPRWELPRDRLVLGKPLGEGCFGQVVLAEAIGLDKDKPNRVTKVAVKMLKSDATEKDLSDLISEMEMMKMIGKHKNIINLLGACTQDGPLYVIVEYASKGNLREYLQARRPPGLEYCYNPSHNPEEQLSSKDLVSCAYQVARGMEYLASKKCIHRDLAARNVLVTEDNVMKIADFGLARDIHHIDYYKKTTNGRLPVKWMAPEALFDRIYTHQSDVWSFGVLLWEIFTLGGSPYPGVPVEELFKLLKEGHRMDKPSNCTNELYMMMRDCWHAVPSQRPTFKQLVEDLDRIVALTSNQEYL
UniProt Q9H2X6, 199-527 limits assumed: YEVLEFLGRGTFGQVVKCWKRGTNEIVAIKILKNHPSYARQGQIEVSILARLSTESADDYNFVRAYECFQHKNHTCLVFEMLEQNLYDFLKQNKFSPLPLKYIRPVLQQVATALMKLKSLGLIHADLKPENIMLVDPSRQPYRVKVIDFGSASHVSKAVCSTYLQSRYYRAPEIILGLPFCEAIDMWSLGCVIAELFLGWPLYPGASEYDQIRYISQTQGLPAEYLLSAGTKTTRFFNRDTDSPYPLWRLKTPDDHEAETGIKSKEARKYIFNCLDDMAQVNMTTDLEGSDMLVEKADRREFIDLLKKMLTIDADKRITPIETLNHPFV
UniProt O94804, 18-317 limits assumed: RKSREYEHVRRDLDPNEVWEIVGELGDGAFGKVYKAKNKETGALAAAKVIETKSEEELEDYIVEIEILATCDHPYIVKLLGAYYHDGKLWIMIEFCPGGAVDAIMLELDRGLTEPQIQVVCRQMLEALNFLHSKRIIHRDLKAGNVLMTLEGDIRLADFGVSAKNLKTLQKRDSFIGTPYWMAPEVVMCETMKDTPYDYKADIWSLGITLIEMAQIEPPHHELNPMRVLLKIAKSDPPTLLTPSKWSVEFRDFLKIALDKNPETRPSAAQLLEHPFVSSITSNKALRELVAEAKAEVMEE
UniProt P27448, 56-307 limits assumed: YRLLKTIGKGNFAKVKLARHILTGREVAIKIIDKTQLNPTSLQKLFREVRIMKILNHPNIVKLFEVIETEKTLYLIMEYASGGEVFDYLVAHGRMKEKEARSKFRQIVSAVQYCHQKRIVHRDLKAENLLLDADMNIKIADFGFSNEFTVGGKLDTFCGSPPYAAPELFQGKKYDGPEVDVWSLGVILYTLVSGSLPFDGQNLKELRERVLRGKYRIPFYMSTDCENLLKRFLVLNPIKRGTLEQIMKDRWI
UniProt Q96PY6, 1-328 limits assumed: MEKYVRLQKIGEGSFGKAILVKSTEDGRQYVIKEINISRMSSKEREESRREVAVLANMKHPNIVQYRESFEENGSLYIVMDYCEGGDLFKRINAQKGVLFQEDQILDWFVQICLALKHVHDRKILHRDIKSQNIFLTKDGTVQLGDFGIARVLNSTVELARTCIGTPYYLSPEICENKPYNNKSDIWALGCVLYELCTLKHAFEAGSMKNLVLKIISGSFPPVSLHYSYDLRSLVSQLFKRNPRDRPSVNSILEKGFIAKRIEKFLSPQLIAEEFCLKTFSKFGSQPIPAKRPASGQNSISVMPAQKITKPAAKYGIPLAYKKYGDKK
UniProt P51955, 1-271 limits assumed: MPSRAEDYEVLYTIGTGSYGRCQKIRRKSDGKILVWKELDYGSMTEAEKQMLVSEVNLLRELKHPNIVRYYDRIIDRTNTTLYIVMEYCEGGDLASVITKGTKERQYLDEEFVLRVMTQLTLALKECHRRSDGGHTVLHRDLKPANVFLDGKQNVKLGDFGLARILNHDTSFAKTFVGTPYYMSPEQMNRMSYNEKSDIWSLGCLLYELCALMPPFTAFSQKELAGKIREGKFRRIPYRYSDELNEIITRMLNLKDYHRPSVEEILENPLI
UniProt P11309, whole entry, looked up: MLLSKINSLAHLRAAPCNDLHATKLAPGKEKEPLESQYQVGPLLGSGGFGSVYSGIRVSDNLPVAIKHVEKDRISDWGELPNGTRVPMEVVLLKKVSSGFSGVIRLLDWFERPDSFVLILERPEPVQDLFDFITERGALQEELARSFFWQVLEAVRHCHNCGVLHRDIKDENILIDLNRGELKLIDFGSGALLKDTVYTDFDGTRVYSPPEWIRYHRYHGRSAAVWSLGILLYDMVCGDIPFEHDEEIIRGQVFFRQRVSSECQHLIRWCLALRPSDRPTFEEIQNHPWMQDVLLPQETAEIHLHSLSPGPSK
UniProt Q96SB4, 80-653 limits assumed: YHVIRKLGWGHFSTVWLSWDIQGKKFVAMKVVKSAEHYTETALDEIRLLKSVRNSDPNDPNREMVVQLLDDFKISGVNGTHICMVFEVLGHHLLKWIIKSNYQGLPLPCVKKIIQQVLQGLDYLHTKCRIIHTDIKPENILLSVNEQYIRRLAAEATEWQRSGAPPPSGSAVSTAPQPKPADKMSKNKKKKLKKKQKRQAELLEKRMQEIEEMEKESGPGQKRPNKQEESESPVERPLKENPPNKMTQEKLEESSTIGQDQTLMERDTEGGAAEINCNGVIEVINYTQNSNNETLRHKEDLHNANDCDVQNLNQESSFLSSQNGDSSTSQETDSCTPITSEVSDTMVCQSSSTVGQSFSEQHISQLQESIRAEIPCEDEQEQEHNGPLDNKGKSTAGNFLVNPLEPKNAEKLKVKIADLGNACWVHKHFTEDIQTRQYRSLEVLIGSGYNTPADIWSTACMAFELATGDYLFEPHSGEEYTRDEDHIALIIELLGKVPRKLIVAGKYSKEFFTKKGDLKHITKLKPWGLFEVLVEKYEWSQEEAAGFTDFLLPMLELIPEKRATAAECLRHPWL
UniProt P33981, 525-791 limits assumed: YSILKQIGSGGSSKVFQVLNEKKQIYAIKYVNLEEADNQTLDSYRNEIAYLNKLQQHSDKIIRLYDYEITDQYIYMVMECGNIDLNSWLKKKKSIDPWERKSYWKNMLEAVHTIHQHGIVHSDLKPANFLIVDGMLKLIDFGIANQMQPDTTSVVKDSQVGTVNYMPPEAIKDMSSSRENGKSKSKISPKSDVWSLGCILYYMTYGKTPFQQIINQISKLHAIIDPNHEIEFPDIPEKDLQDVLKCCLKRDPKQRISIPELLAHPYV
UniProt Q6PHR2, 1-279 limits assumed: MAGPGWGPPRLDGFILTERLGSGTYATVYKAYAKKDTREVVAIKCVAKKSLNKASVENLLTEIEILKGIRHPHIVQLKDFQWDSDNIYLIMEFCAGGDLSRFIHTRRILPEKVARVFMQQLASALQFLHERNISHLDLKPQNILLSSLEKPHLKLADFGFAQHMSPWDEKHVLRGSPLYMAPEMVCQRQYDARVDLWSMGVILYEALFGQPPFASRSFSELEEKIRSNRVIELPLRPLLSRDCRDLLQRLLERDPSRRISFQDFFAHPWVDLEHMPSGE
UniProt Q9H4A3, 206-483 limits assumed: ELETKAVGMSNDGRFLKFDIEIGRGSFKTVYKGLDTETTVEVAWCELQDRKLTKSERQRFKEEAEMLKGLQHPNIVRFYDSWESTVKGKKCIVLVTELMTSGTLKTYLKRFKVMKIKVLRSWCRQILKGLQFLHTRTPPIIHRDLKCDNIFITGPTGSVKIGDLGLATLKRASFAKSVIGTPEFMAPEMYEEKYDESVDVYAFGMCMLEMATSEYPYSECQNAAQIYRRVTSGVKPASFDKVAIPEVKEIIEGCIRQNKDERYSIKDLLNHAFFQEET

In article PMC12678819, “Targeting bacterial kinases as a strategy to counteract antibiotic resistance” (2025):

What was measured:
[1] = target: AAK1 (Homo sapiens, UniProt Q2M2I8); assay: DSF kinase panel; conditions: 10 μM
[2] = target: ABL1 (Homo sapiens, UniProt P00519); assay: DSF kinase panel; conditions: 10 μM
[3] = target: AURKB (Homo sapiens, UniProt Q96GD4); assay: DSF kinase panel; conditions: 10 μM
[4] = target: AurA (Homo sapiens, UniProt O14965); assay: DSF kinase panel; conditions: 10 μM
[5] = target: BIKE (Homo sapiens, UniProt Q9NSY1); assay: DSF kinase panel; conditions: 10 μM
[6] = target: BMPR2 (Homo sapiens, UniProt Q13873); assay: DSF kinase panel; conditions: 10 μM
[7] = target: CAMK1D (Homo sapiens, UniProt Q8IU85); assay: DSF kinase panel; conditions: 10 μM
[8] = target: CAMK1G (Homo sapiens, UniProt Q96NX5); assay: DSF kinase panel; conditions: 10 μM
[9] = target: CAMK2B (Homo sapiens, UniProt Q13554); assay: DSF kinase panel; conditions: 10 μM
[10] = target: CASK (Homo sapiens, UniProt O14936); assay: DSF kinase panel; conditions: 10 μM
[11] = target: CDK2 (Homo sapiens, UniProt P24941); assay: DSF kinase panel; conditions: 10 μM
[12] = target: CDKL1 (Homo sapiens, UniProt Q00532); assay: DSF kinase panel; conditions: 10 μM
[13] = target: CK2a1 (Homo sapiens, UniProt P68400); assay: DSF kinase panel; conditions: 10 μM
[14] = target: CLK1 (Homo sapiens, UniProt P49759); assay: DSF kinase panel; conditions: 10 μM
[15] = target: CSNK1E (Homo sapiens, UniProt P49674); assay: DSF kinase panel; conditions: 10 μM
[16] = target: DAPK3 (Homo sapiens, UniProt O43293); assay: DSF kinase panel; conditions: 10 μM
[17] = target: DRAK1 (Homo sapiens, UniProt Q9UEE5); assay: DSF kinase panel; conditions: 10 μM
[18] = target: DYRK1A (Homo sapiens, UniProt Q13627); assay: DSF kinase panel; conditions: 10 μM
[19] = target: DYRK2 (Homo sapiens, UniProt Q92630); assay: DSF kinase panel; conditions: 10 μM
[20] = target: EPHB1 (Homo sapiens, UniProt P54762); assay: DSF kinase panel; conditions: 10 μM
[21] = target: FGFR1 (Homo sapiens, UniProt P11362); assay: DSF kinase panel; conditions: 10 μM
[22] = target: GPRK5 (Homo sapiens, UniProt P34947); assay: DSF kinase panel; conditions: 10 μM
[23] = target: HIPK2 (Homo sapiens, UniProt Q9H2X6); assay: DSF kinase panel; conditions: 10 μM
[24] = target: LOK (Homo sapiens, UniProt O94804); assay: DSF kinase panel; conditions: 10 μM
[25] = target: MAPK15 (Homo sapiens, UniProt Q8TD08); assay: DSF kinase panel; conditions: 10 μM
[26] = target: MARK3 (Homo sapiens, UniProt P27448); assay: DSF kinase panel; conditions: 10 μM
[27] = target: MELK (Homo sapiens, UniProt Q14680); assay: DSF kinase panel; conditions: 10 μM
[28] = target: MRCKa (Homo sapiens, UniProt Q5VT25); assay: DSF kinase panel; conditions: 10 μM
[29] = target: NEK1 (Homo sapiens, UniProt Q96PY6); assay: DSF kinase panel; conditions: 10 μM
[30] = target: NEK2 (Homo sapiens, UniProt P51955); assay: DSF kinase panel; conditions: 10 μM
[31] = target: PIM1 (Homo sapiens, UniProt P11309); assay: DSF kinase panel; conditions: 10 μM
[32] = target: PIM3 (Homo sapiens, UniProt Q86V86); assay: DSF kinase panel; conditions: 10 μM
[33] = target: RSK1_b (Homo sapiens, UniProt Q15418); assay: DSF kinase panel; conditions: 10 μM
[34] = target: SRC (Homo sapiens, UniProt P12931); assay: DSF kinase panel; conditions: 10 μM
[35] = target: SRPK1 (Homo sapiens, UniProt Q96SB4); assay: DSF kinase panel; conditions: 10 μM
[36] = target: TLK1 (Homo sapiens, UniProt Q9UKI8); assay: DSF kinase panel; conditions: 10 μM
[37] = target: TTK (Homo sapiens, UniProt P33981); assay: DSF kinase panel; conditions: 10 μM
[38] = target: ULK3 (Homo sapiens, UniProt Q6PHR2); assay: DSF kinase panel; conditions: 10 μM
[39] = target: VRK1 (Homo sapiens, UniProt Q99986); assay: DSF kinase panel; conditions: 10 μM
[40] = target: WNK1 (Homo sapiens, UniProt Q9H4A3); assay: DSF kinase panel; conditions: 10 μM
[41] = Plasma stability assay, mouse; conditions: 1 μg∙mL-1
[42] = Plasma protein binding, mouse; conditions: for PPB mouse, single replicate: maus, raw data of Table 3; for PPB mouse (%): mean
[43] = Metabolic stability assay, human microsomes

Clc1cnc2[nH]ccc2c1-c1cn(-c2ccccc2)nn1
ΔTm AAK1 [1]: 4.5 °C | ΔTm ABL1 [2]: 1.2 °C | ΔTm AURKB [3]: 4.9 °C | ΔTm AurA [4]: 5.5 °C | ΔTm BIKE [5]: 8.5 °C | ΔTm BMPR2 [6]: 5.4 °C | ΔTm CAMK1D [7]: 1.2 °C | ΔTm CAMK1G [8]: 0.9 °C | ΔTm CAMK2B [9]: -0.1 °C | ΔTm CASK [10]: 0.7 °C | ΔTm CDK2 [11]: 0.0 °C | ΔTm CDKL1 [12]: -0.4 °C | ΔTm CK2a1 [13]: 1.2 °C | ΔTm CLK1 [14]: 3.5 °C | ΔTm CSNK1E [15]: 1.1 °C | ΔTm DAPK3 [16]: 4.7 °C | ΔTm DRAK1 [17]: 8.0 °C | ΔTm DYRK1A [18]: 1.2 °C | ΔTm DYRK2 [19]: 3.5 °C | ΔTm EPHB1 [20]: 0.0 °C | ΔTm FGFR1 [21]: 0.7 °C | ΔTm GPRK5 [22]: 0.3 °C | ΔTm HIPK2 [23]: 1.2 °C | ΔTm LOK [24]: -1.5 °C | ΔTm MAPK15 [25]: 1.9 °C | ΔTm MARK3 [26]: 1.3 °C | ΔTm MELK [27]: 1.9 °C | ΔTm MRCKa [28]: 0.1 °C | ΔTm NEK1 [29]: 0.8 °C | ΔTm NEK2 [30]: -1.0 °C | ΔTm PIM1 [31]: 0.5 °C | ΔTm PIM3 [32]: 1.4 °C | ΔTm RSK1_b [33]: 1.5 °C | ΔTm SRC [34]: -0.3 °C | ΔTm SRPK1 [35]: -0.3 °C | ΔTm TLK1 [36]: -1.0 °C | ΔTm TTK [37]: 1.4 °C | ΔTm ULK3 [38]: 8.9 °C | ΔTm VRK1 [39]: -0.5 °C | ΔTm WNK1 [40]: -0.6 °C | t1/2 mouse plasma [41]: 2.122 h | PPB mouse, single replicate [42]: 98.1% and 98.6% and 97.3% | PPB mouse (%) [42]: 98.0 ± 0.7% | t1/2 human microsomes [43]: 0.322 h

NC(=O)Cn1cc(-c2c(Cl)cnc3[nH]ccc23)nn1
ΔTm AAK1 [1]: 4.8 °C | ΔTm ABL1 [2]: 1.3 °C | ΔTm AURKB [3]: 6.0 °C | ΔTm AurA [4]: 7.2 °C | ΔTm BIKE [5]: 8.7 °C | ΔTm BMPR2 [6]: 3.8 °C | ΔTm CAMK1D [7]: 1.4 °C | ΔTm CAMK1G [8]: 1.4 °C | ΔTm CAMK2B [9]: 0.0 °C | ΔTm CASK [10]: -0.1 °C | ΔTm CDK2 [11]: 0.0 °C | ΔTm CDKL1 [12]: -0.1 °C | ΔTm CK2a1 [13]: 0.7 °C | ΔTm CLK1 [14]: 3.3 °C | ΔTm CSNK1E [15]: 2.3 °C | ΔTm DAPK3 [16]: 4.3 °C | ΔTm DRAK1 [17]: 4.5 °C | ΔTm DYRK1A [18]: 1.3 °C | ΔTm DYRK2 [19]: 3.4 °C | ΔTm EPHB1 [20]: 0.2 °C | ΔTm FGFR1 [21]: 1.1 °C | ΔTm GPRK5 [22]: 1.0 °C | ΔTm HIPK2 [23]: 0.9 °C | ΔTm LOK [24]: -1.9 °C | ΔTm MAPK15 [25]: 2.6 °C | ΔTm MARK3 [26]: 1.9 °C | ΔTm MELK [27]: 3.2 °C | ΔTm MRCKa [28]: 0.1 °C | ΔTm NEK1 [29]: 0.6 °C | ΔTm NEK2 [30]: -1.0 °C | ΔTm PIM1 [31]: 0.2 °C | ΔTm PIM3 [32]: -0.3 °C | ΔTm RSK1_b [33]: 1.2 °C | ΔTm SRC [34]: -0.2 °C | ΔTm SRPK1 [35]: -0.3 °C | ΔTm TLK1 [36]: -1.4 °C | ΔTm TTK [37]: 1.4 °C | ΔTm ULK3 [38]: 4.4 °C | ΔTm VRK1 [39]: -0.5 °C | ΔTm WNK1 [40]: -0.2 °C | t1/2 mouse plasma [41]: 1.937 h | PPB mouse, single replicate [42]: 20.4% and 8.0% and 29.4% | PPB mouse (%) [42]: 19.3 ± 10.7% | t1/2 human microsomes [43]: >1 h

Several values for one entry are separate records, joined by “and”; a condition that tells them apart may be missing. Identical values can stand only once.
